# Ab-14 heavy chain CDR variants: yeast mating affinities

From the AlphaSeq antibody data of Engelhart et al. 2022 (doi:10.1038/s41597-022-01779-4), copy in the FLAb collection.

Target peptide (SARS-CoV-2 spike, HR2 region): PDVDLGDISGINAS

Parent scFv Ab-14: VH joined to VL by three GGGGS repeats. Changes lie in the heavy chain CDRs alone.
VH: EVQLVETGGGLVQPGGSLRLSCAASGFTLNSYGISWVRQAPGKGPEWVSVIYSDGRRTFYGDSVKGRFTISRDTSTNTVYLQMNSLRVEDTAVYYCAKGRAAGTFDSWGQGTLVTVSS
VL: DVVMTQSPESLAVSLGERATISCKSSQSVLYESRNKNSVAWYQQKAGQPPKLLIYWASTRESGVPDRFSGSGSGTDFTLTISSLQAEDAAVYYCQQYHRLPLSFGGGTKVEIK

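Phage display of a naive human antibody library on the peptide gave the parent. Library AAYL49 holds single substitutions and randomly drawn double and triple substitutions in the CDRs. AlphaSeq pools MATa yeast showing the antibodies with MATalpha yeast showing the peptide. Pairs that bind mate more often; barcode pairs of the diploids are counted by sequencing. The ratio of observed to expected reads was calibrated, replicate by replicate, on BCL2-family standards whose Kd was known from biolayer interferometry. Mating was done three times.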

Changes read parent residue, position, new residue, counted from the first residue of the VH shown. The read-out is the apparent dissociation constant on a log10 scale (nM): the lower, the stronger. "ND" means that the variant was in the library but no mating with the target was seen in that replicate; the authors take this as a sign of poor binding, and no number exists. As a blank, each scFv also met three strains without target: over library AAYL49, 15% of these pairings were detected, typically at 4.06 and seldom below 2.83. The control count says in how many pairings with the empty strains this scFv gave a signal, with their mean in brackets.

| changes | log10 Kd, replicates | empty controls |
|---|---|---|
| G33V/G55N/D106A | ND / ND / ND | 1 of 9 (3.33) |
| N30H/G55Y/G61C | ND / ND / ND | 2 of 9 (3.67) |
| L29T/G61P/D106H | ND / 3.17 / ND | 0 of 9 |
| Y52E/D54P/D106C | 3.10 / 2.86 / ND | 2 of 9 (3.80) |
| F27I/S31R/I34A | ND / ND / 3.83 | 3 of 9 (4.26) |
| Y60T/R100A/G103F | ND / ND / ND | 0 of 9 |
| Y32V/T58W/S107Q | ND / ND / ND | 1 of 9 (4.49) |
| T28F/Y32C/F105W | ND / 4.02 / ND | 0 of 9 |
| T58P/D106P | 5.62 / ND / ND | 2 of 9 (4.17) |
| L29T/V50G/D106I | ND / 3.34 / ND | 1 of 9 (2.59) |
| T28V/Y52H/G103Q | ND / ND / ND | 0 of 9 |
| V50A/S53A/G99E | ND / ND / ND | 0 of 9 |
| S31I/S63G | 1.74 / 2.89 / 3.74 | 0 of 9 |
| L29I/D106Q | ND / ND / 2.86 | 0 of 9 |
| I34L/F59K/F105V | ND / ND / ND | 0 of 9 |
| N30G/G33N/V64D | 4.53 / 2.94 / 3.33 | 3 of 9 (4.32) |
| Y52E/S53A/G61L | 3.46 / 4.41 / ND | 3 of 9 (3.89) |
| F59Q/Y60M/S63D | 4.74 / 4.60 / 3.67 | 4 of 9 (4.56) |
| N30H/V64R/S107R | 1.57 / 1.77 / 2.12 | 2 of 9 (4.33) |
| G61S/K65M/D106S | 0.92 / 1.03 / 0.95 | 3 of 9 (3.69) |
| G26E/Y32D/K65A | ND / ND / ND | 0 of 9 |
| G26M/G33K | ND / ND / ND | 1 of 9 (3.51) |
| V50P/F59M/S107N | ND / ND / ND | 0 of 9 |
| G61K/G99A/D106C | ND / ND / ND | 2 of 9 (2.92) |
| F27D/Y32N | ND / 3.95 / 4.21 | 1 of 9 (4.08) |
| L29A/N30Y | ND / ND / ND | 1 of 9 (2.51) |
| I34A/D54F/F105V | 6.02 / 3.68 / 4.35 | 3 of 9 (3.29) |
| G26R/Y32W/F105N | ND / ND / ND | 0 of 9 |
| G55H/T58D/D106L | ND / ND / ND | 5 of 9 (3.96) |
| D54A/T58R/G103E | ND / ND / ND | 0 of 9 |
| S31I/G61R/F105C | 6.15 / ND / ND | 2 of 9 (3.84) |
| N30T/I34D/R56M | ND / ND / ND | 0 of 9 |
| Y32G/S53C/F59V | 5.18 / 4.37 / 4.06 | 5 of 9 (4.19) |
| F27W/R57C/D106R | ND / ND / ND | 0 of 9 |
| S35Y/D54V/T58D | ND / ND / ND | 0 of 9 |

The last 4 entries again:

changes	log10 Kd, replicates	empty controls
N30T/I34D/R56M	ND / ND / ND	0 of 9
Y32G/S53C/F59V	5.18 / 4.37 / 4.06	5 of 9 (4.19)
F27W/R57C/D106R	ND / ND / ND	0 of 9
S35Y/D54V/T58D	ND / ND / ND	0 of 9